# Assay: FTIH study: repeat dose (Day 15) pharmacokinetics of Compound tablets;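 also: subjects with solid tumors in a first-in-human dose-escalation study, single and repeated once-daily oral tablet dosing, some regimens starting with a loading dose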
# Conditions: human, repeat oral dose Day 15, fasting, mean (CV %)
structure (smiles),measurement,setting,value
"CC(=O)Nc1cccc(-n2c(=O)n(C3CC3)c(=O)c3c(Nc4ccc(I)cc4F)n(C)c(=O)c(C)c32)c1 [Compound, N-{3-[3-cyclopropyl-5-(2-fluoro-4-iodo-phenylamino)-6,8-dimethyl-2,4,7-trioxo-3,4,6,7-tetrahydro-2H-pyrido[4,3-d]pyrimidin-1-yl]phenyl}acetamide]",AR (Accumulation Ratio),"2 mg (loading and continuous regimens), N 12",6.57 (36%)
same,AR (Accumulation Ratio),"2.5 mg (loading and continuous regimens), N 15",8.14 (42%)
same,AR (Accumulation Ratio),"3 mg (loading and continuous regimens), N 14",7.17 (64%)
